“Also recorded” adds a separate entry of the source.
Experiments:
Format in all cases: cell-based, human
Conditions in all cases: presence of LY335979 (1 μM)
[1] = tested on: MDR KB-8-5 (+Pgp) cells; assay: Cell transport study, cellular accumulation in MDR KB-8-5 cells
[2] = tested on: KB-8-5-11 (++Pgp) cells; assay: Cell transport study, cellular accumulation in KB-8-5-11 cells
[3] = tested on: MCF-7/MDR1 (+Pgp) cells; assay: Cell transport study, cellular accumulation in stably transfected MCF-7/MDR1 cells

## CC(C)Oc1cccc2c1[O][67Ga+][O]c1c(cccc1OC(C)C)C=NCC(C)(C)CNCCNCC(C)(C)CN=C2.[I-] [Agent 1A, [ENBDMP-3-isopropoxy-PI-^67Ga]^+]
[1]
  effect of Pgp inhibitor on cellular accumulation: enhanced accumulation; also recorded: induced accumulation
[2]
  effect of Pgp inhibitor on cellular accumulation: enhanced accumulation; also recorded: induced accumulation
[3]
  effect of Pgp inhibitor on cellular accumulation: enhanced accumulation; also recorded: induced accumulation
